The values below are quoted from earlier work in patent US20260108561A1, “COMPOSITION FOR CELL TRANSPLANTATION THERAPY AND THE USE THEREOF” (NATIONAL UNIVERSITY OF SINGAPORE, priority 2022, published 2026).

In general, half-life refers to how long it takes for the measured level to halve.

For the series the following is noted: cited from earlier work.

Regarding Maraviroc, the half-life was 14 to 18 h.
